Results taken from ChEMBL document CHEMBL1156438, “Resolvin D1 and its aspirin-triggered 17R epimer. Stereochemical assignments, anti-inflammatory properties, and enzymatic inactivation” (J Biol Chem, 2007).

Organism: Homo sapiens
Assay: Antiinflammatory activity in human polymorphonuclear leukocytes assessed as inhibition of n-formylmethionylleucylphenylalanine-stimulated transendothelial migration after 15 mins
Format: functional, cell-based

Row | SMILES | Activity
1 | CC/C=C\C[C@H](O)/C=C/C=C\C=C\C=C\[C@@H](O)[C@@H](O)C/C=C\CCC(=O)O | Dose-dependent effect
2 | CC/C=C\C[C@@H](O)/C=C/C=C\C=C\C=C\[C@@H](O)[C@@H](O)C/C=C\CCC(=O)O | Dose-dependent effect
